Assays:
hNOPr = hNOPr (Homo sapiens, UniProt P41146); test: Radioligand binding affinity test, [3H]-Nociceptin displacement on receptor cell membranes; details: for Ki: read-out: Ki (nM) of Affinity of opioid receptor hNOPr, 3H-Nociceptin 0.5 nM, cell membranes containing human NOPr
hMOR = hMOR (Homo sapiens, UniProt P35372); test: Agonistic function, cAMP method, 293-MOR cells; details: read-out: hMOR EC50, forskolin

Sequences of proteins named here, by UniProt entry; tags and fusion partners are left off.
UniProt P41146, whole entry: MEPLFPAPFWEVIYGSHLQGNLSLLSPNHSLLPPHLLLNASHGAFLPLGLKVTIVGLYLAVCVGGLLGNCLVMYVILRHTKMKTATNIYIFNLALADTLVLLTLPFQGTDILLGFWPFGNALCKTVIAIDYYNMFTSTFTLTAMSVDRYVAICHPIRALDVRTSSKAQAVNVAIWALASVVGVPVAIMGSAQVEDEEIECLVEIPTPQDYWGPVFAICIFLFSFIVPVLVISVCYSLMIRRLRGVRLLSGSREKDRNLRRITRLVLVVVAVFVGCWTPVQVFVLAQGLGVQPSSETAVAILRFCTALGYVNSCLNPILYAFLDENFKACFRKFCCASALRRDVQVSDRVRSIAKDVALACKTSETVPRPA
UniProt P35372, whole entry: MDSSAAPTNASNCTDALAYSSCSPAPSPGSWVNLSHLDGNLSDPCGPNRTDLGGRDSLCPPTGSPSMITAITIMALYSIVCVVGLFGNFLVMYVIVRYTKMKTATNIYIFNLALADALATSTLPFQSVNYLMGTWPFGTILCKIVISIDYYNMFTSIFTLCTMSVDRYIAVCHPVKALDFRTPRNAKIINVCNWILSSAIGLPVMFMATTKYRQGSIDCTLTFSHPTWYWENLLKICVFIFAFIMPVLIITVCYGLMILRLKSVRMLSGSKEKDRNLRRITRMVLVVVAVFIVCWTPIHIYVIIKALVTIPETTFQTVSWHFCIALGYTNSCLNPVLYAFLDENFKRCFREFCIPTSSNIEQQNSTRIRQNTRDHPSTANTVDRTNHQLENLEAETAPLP

Cc1noc(Cn2c(=O)n(C3CCN([C@H]4CC[C@@H](C(C)C)CC4)CC3)c3cc(F)c(F)cc32)n1
Selectivity hKOR/hNOPr (hNOPr; ratio of Ki values hKOR/hNOPr): 386
Selectivity hMOR/hNOPr (hNOPr; ratio of Ki values hMOR/hNOPr): 5.74
Ki (hNOPr): 3.01 nM

CCS(=O)(=O)NCCN1Cc2cc(F)c(F)cc2N(C2CCN([C@H]3CC[C@@H](C(C)C)CC3)CC2)C1=O (relative stereo)
Ki (hNOPr): 0.83 nM
EC50 (hMOR): 30 nM

CC(C)C1CCC(N2CCC(N3C(=O)N(CCNS(C)(=O)=O)Cc4cc(F)c(F)cc43)CC2)CC1 (stereo not shown)
Ki (hNOPr): 1.75 nM
EC50 (hMOR): 22.8 nM
